The list shows a part of the results, in another mix than the full data. Active and inactive are the calls of the source. How the source made its calls: active means hit-call score of the fitted dose curve at least 0.9, where 1 is the maximum; inactive means score below 0.9.
Target: Transcription factor E2F1 (Homo sapiens) (UniProt Q01094)
Experiment: ATG_E2F_CIS: Attagene CIS-FACTORIAL HepG2 Assay for human E2F Transcription Factor 1 (AID 2282935)
Settings: HepG2 Attagene cis-reporter, E2F reporter RNA transcripts; actives raise or lower the signal
Method: ATG_CIS is a cell-based, multiplexed-readout assay that uses HepG2, a human liver cell line, with measurements taken at 24 hours after chemical dosing in a 24-well plate.ATG_E2F_CIS is one of 52 assay component(s) measured or calculated from the ATG_CIS assay. It is designed to make measurements of mRNA induction, a form of inducible reporter, as detected with fluorescence intensity signals by Reverse transcription polymerase chain reaction (RT-PCR) and Capillary electrophoresis technology.Data from the assay component ATG_E2F_CIS was analyzed into 1 assay endpoint. This assay endpoint, ATG_E2F_CIS, was analyzed with bidirectional fitting relative to DMSO as the negative control and baseline of activity. Using a type of inducible reporter, measures of mRNA for gain or loss-of-signal activity can be used to understand the reporter gene at the transcription factor-level as they relate to the gene E2F1. Furthermore, this assay endpoint can be referred to as a primary readout, because this assay has produced multiple assay endpoints where this one serves a reporter gene function. To generalize the intended target to other relatable targets, this assay endpoint is annotated to the dna binding intended target family, where the subfamily is E2F transcription factor.
Human liver HepG2 cells are transiently transfected with multiple reporter transcription units (MRTUs) in 6-well plates using FuGene 6 reagent (Roche; 3 ml FuGene/1 mg DNA). The MRTU constructs are regulated by a cis-regulating element (promoter). […] A major difference between the CIS and TRANS system is that in CIS activities of endogenous TFs are measured, whereas the TRANS assay evaluates changes in activities of exogenous, chimeric NR-Gal4 proteins. […] At the end of 24 hour incubation, total RNA was isolated using TriZol reagent (Invitrogen). The isolated RNA is then reverse-transcribed using oligo(dT) primer and Mo-MLV reverse transcriptase (Invitrogen) with DNAse I (Ambion) treatment for 30 min. The one-tenth of the produced cDNA was amplified by PCR using Taq DNA polymerase (Invitrogen) and two reporter sequence-specific primers. The PCR products were fluorescently labeled by primer extension with 6-arboxyfluorescein (6-FAM) 5'-labeled reporter sequence-specific primer (2 min at 95 C, 20 s at 68 C and 10 min at 72 C) and these products were digested with 5U of HpaI (New England Biolabs) for 2h at 37 C. The fragments were purified using Qiaquick PCR columns (Qiagen), analyzed on an ABI 3130xL genetic analyzer (Applied Biosystems) with peak positions identified by using a set of X-rhodamine (ROX)-labeled MapMarker1000 molecular weight standards (BioVentures). The raw capillary electrophoresis data was processed using Attagraph software (Attagene).

Protein sequences, listed by entry. Tags and fused reporters are not part of them.
UniProt Q01094, whole entry: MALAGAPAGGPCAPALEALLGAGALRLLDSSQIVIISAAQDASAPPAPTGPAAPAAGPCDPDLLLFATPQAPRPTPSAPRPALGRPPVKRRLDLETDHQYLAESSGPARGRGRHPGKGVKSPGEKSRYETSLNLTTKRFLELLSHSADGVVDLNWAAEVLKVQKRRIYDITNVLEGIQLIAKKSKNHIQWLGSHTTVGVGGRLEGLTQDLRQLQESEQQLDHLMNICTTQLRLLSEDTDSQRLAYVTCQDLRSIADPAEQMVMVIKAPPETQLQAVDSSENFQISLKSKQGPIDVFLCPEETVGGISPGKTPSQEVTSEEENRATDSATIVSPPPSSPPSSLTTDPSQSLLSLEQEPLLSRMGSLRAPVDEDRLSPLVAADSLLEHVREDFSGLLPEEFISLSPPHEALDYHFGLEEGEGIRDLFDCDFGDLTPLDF

Question: For `O=[N+]([O-])OCC(CO[N+](=O)[O-])(CO[N+](=O)[O-])CO[N+](=O)[O-]`, which outcome is on record?
Answer: The outcome was “inactive”.

Question: For `Cc1ccc([N+](=O)[O-])c([N+](=O)[O-])c1`, which outcome is on record?
Answer: Its outcome is “inactive”.

Question: With `N#CBr` as the compound, how does the outcome read?
Answer: Its outcome is “inactive”.

Question: Which outcome does the source give for `Cc1c([N+](=O)[O-])cccc1[N+](=O)[O-]` here?
Answer: The outcome was “inactive”.

Question: `CC(C)N(CCO)C(C)C` was tested. Which outcome did it give?
Answer: The outcome was “inactive”.

Question: How did the outcome turn out when `COc1ccc([N+](=O)[O-])cc1[N+](=O)[O-]` was run?
Answer: The outcome was “inactive”.

Question: `COP(C)(=O)OC` was tested. Which outcome did it give?
Answer: Its outcome is “inactive”.

Question: With `O=[N+]([O-])c1cccc([N+](=O)[O-])c1` as the compound, how does the outcome read?
Answer: The outcome was “inactive”.

Question: Which outcome does the source give for `Cc1ccc([N+](=O)[O-])cc1[N+](=O)[O-]` here?
Answer: The outcome was “inactive”.

Question: How did the outcome turn out when `Cc1cccc([N+](=O)[O-])c1[N+](=O)[O-]` was run?
Answer: The outcome was “inactive”.

Question: How did the outcome turn out when `CN(C)CCCl` was run?
Answer: Its outcome is “inactive”.

Question: Which outcome does the source give for `CC(C)OP(C)(=O)OC(C)C` here?
Answer: Its outcome is “inactive”.

Source: PubChem BioAssay (EPA / NIEHS)
